Laboratory results reported in ChEMBL document CHEMBL5120851, “Discovery of indirubin-3'-aminooxy-acetamide derivatives as potent and selective FLT3/D835Y mutant kinase inhibitors for acute myeloid leukemia” (Eur J Med Chem, 2022).

Sequences of proteins named here, by UniProt entry; tags and fusion partners are left off. A change or cut given only in a name is not applied to a line headed by its entry.
UniProt P07949, whole entry: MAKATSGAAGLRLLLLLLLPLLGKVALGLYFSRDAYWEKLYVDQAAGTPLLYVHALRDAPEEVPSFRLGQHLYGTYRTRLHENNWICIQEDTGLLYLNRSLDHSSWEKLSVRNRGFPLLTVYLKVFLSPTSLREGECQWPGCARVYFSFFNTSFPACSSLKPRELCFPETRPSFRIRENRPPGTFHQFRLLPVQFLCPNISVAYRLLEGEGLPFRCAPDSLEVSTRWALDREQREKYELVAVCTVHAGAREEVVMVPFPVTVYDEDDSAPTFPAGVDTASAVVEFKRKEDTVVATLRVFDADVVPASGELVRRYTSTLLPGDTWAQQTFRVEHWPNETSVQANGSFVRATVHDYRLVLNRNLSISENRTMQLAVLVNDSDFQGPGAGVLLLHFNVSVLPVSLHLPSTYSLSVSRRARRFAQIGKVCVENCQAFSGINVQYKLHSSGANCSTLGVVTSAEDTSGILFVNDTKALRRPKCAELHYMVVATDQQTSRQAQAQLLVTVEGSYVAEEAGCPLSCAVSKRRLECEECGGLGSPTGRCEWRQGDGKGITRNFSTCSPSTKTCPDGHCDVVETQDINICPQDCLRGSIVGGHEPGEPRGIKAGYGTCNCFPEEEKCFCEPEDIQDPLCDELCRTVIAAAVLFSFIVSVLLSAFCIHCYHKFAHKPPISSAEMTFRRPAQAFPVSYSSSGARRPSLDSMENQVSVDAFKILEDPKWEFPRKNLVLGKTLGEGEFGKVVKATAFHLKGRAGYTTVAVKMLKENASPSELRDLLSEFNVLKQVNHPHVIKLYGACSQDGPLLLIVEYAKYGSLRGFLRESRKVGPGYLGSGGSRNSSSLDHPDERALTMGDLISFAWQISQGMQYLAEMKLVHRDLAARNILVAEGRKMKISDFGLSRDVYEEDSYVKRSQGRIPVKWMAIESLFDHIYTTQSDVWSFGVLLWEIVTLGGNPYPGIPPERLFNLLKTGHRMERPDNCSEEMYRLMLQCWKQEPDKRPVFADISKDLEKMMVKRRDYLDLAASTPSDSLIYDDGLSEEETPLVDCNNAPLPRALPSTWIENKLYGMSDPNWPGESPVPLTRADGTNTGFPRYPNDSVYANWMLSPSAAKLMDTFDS
UniProt P09619, whole entry: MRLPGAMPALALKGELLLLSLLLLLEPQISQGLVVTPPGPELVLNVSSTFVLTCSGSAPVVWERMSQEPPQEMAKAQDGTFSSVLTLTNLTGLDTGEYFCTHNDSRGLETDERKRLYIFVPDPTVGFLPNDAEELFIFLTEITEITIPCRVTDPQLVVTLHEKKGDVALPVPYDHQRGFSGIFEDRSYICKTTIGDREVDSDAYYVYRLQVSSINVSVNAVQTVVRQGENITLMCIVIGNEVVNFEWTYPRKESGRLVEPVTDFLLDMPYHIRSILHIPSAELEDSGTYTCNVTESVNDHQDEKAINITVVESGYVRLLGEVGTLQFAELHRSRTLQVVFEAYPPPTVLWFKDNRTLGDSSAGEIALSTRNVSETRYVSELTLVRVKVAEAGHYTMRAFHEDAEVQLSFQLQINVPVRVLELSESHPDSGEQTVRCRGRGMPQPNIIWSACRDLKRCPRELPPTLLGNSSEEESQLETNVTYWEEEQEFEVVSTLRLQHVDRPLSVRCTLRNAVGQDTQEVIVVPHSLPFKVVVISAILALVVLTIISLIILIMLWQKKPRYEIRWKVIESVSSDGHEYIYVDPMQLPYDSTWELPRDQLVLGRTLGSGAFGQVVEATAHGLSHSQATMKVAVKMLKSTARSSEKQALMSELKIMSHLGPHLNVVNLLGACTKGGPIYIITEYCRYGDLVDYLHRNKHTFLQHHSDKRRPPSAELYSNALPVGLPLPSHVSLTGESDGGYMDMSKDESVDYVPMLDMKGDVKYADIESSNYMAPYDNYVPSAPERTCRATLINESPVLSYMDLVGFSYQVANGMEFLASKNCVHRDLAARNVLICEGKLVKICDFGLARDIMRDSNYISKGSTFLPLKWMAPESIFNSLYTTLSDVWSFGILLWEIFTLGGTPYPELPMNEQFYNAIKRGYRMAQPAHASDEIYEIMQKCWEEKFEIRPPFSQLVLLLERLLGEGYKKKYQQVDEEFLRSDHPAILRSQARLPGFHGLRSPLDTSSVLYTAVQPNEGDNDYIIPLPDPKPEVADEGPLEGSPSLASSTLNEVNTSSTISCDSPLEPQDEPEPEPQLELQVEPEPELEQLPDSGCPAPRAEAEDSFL
UniProt P35916, whole entry: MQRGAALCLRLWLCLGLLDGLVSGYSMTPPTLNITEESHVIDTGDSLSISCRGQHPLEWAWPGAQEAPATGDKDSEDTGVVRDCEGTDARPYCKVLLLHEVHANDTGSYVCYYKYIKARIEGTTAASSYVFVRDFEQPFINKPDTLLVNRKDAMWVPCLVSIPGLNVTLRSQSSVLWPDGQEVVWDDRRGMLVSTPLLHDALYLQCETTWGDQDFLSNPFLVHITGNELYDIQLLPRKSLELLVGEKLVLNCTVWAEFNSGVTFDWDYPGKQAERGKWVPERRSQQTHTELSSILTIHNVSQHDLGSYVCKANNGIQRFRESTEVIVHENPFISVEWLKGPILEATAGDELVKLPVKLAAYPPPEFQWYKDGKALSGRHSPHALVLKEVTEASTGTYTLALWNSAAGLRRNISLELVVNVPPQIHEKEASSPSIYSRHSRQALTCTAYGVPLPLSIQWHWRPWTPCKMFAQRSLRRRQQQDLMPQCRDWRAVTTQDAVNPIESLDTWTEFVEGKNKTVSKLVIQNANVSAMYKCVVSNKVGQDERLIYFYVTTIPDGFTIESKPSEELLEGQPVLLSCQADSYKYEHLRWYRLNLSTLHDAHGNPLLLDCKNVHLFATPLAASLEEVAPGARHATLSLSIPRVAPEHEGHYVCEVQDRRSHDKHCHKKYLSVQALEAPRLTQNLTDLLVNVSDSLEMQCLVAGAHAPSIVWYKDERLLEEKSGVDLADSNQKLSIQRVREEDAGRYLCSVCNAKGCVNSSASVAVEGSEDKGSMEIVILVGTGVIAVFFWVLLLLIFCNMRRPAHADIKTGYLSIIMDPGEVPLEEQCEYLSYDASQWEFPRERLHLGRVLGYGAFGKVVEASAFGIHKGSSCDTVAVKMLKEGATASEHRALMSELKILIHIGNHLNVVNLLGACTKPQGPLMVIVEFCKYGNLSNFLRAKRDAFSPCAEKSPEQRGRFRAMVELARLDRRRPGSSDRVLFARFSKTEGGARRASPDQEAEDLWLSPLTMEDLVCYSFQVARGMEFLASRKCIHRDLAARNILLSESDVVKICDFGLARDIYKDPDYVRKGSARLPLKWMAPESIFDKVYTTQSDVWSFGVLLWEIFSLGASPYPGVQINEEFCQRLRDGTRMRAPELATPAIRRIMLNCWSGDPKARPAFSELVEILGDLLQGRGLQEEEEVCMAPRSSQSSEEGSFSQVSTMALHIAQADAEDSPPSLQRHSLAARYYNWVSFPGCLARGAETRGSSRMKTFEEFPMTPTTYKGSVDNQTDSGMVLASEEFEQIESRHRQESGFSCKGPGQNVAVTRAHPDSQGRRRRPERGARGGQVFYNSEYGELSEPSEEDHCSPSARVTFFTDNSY
UniProt P07333, whole entry: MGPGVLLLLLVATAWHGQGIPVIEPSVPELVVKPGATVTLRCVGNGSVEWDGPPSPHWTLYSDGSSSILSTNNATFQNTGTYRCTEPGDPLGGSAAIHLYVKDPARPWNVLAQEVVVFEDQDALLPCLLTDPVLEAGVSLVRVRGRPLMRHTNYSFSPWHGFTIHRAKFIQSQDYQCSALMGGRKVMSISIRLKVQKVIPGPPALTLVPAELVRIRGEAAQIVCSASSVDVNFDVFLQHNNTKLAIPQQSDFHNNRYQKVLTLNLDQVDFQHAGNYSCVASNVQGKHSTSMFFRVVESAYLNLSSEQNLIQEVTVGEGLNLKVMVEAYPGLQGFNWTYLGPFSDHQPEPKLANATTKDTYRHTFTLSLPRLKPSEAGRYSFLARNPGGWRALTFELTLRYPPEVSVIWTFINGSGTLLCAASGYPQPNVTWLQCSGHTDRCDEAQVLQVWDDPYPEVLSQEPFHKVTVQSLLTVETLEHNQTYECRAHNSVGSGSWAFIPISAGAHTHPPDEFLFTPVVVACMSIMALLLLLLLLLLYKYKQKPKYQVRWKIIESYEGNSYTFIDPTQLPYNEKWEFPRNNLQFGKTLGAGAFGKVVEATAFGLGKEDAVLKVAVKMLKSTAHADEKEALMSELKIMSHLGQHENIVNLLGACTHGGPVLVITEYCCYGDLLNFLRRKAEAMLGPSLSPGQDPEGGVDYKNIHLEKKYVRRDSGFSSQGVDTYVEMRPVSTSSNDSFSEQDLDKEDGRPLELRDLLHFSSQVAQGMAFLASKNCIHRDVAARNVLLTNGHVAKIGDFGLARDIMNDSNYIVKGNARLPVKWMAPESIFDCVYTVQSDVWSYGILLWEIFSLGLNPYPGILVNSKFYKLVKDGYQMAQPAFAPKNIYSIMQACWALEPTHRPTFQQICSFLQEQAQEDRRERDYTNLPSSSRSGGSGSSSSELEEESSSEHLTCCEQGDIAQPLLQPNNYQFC
UniProt P16234: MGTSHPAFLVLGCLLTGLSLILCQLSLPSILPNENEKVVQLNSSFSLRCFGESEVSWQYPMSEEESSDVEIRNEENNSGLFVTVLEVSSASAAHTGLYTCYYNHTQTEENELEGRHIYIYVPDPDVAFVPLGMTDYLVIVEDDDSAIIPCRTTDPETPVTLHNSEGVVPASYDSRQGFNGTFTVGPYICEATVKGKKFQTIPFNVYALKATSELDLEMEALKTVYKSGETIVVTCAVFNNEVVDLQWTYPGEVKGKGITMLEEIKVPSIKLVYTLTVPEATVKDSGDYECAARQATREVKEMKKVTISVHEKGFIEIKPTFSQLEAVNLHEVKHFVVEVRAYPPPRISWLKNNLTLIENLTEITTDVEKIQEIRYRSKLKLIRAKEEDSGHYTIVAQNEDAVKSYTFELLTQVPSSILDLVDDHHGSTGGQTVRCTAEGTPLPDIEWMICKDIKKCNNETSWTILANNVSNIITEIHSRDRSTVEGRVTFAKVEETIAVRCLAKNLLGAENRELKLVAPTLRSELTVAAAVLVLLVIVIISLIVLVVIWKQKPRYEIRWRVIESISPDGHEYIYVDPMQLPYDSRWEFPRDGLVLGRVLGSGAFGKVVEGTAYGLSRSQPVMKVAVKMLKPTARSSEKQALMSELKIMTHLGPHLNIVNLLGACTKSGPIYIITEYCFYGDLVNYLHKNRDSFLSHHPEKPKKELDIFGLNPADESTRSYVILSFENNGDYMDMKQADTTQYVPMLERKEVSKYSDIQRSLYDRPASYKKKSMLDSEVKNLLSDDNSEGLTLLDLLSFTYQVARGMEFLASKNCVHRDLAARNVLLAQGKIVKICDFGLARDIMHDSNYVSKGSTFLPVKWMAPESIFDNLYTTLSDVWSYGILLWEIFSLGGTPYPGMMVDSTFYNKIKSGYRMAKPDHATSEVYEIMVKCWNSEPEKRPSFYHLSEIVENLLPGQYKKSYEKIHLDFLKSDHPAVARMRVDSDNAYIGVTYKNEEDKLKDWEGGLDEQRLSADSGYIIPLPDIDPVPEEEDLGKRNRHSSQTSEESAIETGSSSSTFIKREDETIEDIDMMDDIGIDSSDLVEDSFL

Experiments:
Settings in all cases: dose 100.0 nM
[1] = target: Proto-oncogene tyrosine-protein kinase receptor Ret (Homo sapiens) (UniProt P07949)
[2] = target: Platelet-derived growth factor receptor beta (Homo sapiens) (UniProt P09619)
[3] = target: Vascular endothelial growth factor receptor 3 (Homo sapiens) (UniProt P35916)
[4] = target: Macrophage colony-stimulating factor 1 receptor (Homo sapiens) (UniProt P07333)
[5] = target: Platelet-derived growth factor receptor alpha (Homo sapiens) (UniProt P16234)

inhibition [1]: 99%
inhibition [2]: 72%
inhibition [3]: 94%
inhibition [4]: 54%
inhibition [5]: 66%
SMILES: O=C1Nc2ccccc2/C1=C1/Nc2ccccc2/C1=N\OCC(=O)N1CCNCC1
